Earlier results in US20090258863A1, “Method for treatment of amyotrophic lateral sclerosis using talampanel” (priority 2008, published 2009).

Test system: ALS
Settings: according to the Physician's Desk Reference; cited from earlier work

Nc1nc2ccc(OC(F)(F)F)cc2s1 [Rilutek®, riluzole]
survival and/or time to tracheostomy: extends survival and/or time to tracheostomy
